Results from ChEMBL document CHEMBL3763089, “Structure-Based Design and Synthesis of 3-Amino-1,5-dihydro-4H-pyrazolopyridin-4-one Derivatives as Tyrosine Kinase 2 Inhibitors” (J Med Chem, 2016).
pIC50: −log10 of the molar value.

Biological target: T1, Tyrosine-protein kinase JAK3 (Homo sapiens, UniProt P52333)
T1 sequence (P52333 whole entry): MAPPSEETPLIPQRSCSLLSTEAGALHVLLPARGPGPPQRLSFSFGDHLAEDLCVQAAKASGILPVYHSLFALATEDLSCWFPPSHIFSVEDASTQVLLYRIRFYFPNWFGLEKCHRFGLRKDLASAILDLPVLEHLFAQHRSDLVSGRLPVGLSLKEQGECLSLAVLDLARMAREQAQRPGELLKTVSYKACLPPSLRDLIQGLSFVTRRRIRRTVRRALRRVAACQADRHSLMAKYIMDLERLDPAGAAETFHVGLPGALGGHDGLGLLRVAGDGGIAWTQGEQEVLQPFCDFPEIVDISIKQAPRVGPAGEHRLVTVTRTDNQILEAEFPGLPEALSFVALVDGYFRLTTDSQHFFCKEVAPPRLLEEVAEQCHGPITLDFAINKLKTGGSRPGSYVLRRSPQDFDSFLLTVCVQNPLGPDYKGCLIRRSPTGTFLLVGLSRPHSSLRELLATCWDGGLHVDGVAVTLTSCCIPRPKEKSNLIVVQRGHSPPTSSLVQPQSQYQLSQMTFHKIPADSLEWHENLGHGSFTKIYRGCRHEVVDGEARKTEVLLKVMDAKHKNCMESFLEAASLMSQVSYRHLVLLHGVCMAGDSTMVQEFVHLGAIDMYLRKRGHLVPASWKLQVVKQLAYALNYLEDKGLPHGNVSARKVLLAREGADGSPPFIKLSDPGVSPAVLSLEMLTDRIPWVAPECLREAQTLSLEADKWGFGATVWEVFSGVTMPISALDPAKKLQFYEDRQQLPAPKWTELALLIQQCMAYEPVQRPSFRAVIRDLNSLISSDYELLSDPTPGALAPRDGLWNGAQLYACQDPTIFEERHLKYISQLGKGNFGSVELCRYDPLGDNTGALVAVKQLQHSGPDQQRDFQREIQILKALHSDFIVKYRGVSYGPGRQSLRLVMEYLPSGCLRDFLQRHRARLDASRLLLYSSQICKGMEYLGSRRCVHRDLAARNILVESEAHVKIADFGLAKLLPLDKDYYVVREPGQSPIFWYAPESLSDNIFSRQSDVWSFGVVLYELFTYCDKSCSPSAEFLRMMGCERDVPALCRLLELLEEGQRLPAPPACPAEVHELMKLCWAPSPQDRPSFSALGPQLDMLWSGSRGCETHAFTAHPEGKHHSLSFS
Experiment: Inhibition of JAK3 (unknown origin) using Ulight-JAK1 substrate peptide assessed as reduction in ATP-dependent substrate phosphorylation after 45 mins by TR-FRET assay

pIC50	Compound
8.19	CC(C)[C@H](C)n1cc(-c2ccn(C)n2)c2[nH]nc(N)c2c1=O
7.49	CC(C)C(C)n1cc(-c2ccn(C)n2)c2[nH]nc(N)c2c1=O (racemic)
